These results are taken from publication PMC5735191, “Computational and biological profile of boronic acids for the detection of bacterial serine- and metallo-β-lactamases” (Scientific Reports, 2017).

Experiment [1] has as its system VIM-2 P. aeruginosa clinical isolate. In words: Susceptibility testing (MIC), synergy with cefotaxime. The class given is cell-based. Particulars: antibiotic:inhibitor 1:1 (w/w). As to the method: (§1) The minimum inhibitory concentrations (MICs), for CAZ and CTX alone and in combination with boronic acids against resistant strains were determined (Table 2a,b).
(§2) Susceptibility testing was performed in Mueller Hinton broth and interpreted following the guidelines of the National Committee for Clinical Laboratory Standards[70]. To test the inhibitory activity, the compounds were dissolved in DMSO, 50% in water, and further dilutions were performed using growth medium. In all cases tests were performed at a final DMSO concentration below 5%, avoiding unwanted DMSO inhibition effect on strains growth (blank test control with DMSO were performed). The MICs of cefotaxime and ceftazidime alone and in association were determined against several relevant Gram-negative clinical isolates, selected from the pathogen collection of the Spanish Network for Research in Infectious Pathology (REIPI; Spain). The selection was based on strains capability of producing β-lactamases of interest for the present study. The antibiotic:inhibitor ratio was 1:1 (w/w).

The test system of experiment [2] is E. aerogenes clinical isolate, overproduction chromosomal AmpC. The experiment can be described thus: Susceptibility testing (MIC), synergy with ceftazidime. The class given is cell-based. Particulars: antibiotic:inhibitor 1:1 (w/w). As to the method:
as §1, §2

For the compound `CC(C)(C)OC(=O)Nc1cccc2cc(B(O)O)sc12` [Compound 6], the “MIC of cefotaxime (CTX) in combination with compound” value in experiment [1] was found to be 128 µg/mL. For the same compound, the “MIC of ceftazidime (CAZ) in combination with compound” value (“MIC of ceftazidime (CAZ)” for short) in experiment [2] worked out at 128 µg/mL.

Regarding `CC(C)(C)OC(=O)c1cccc2cc(B3OC(C)(C)C(C)(C)O3)sc12` [Compound 4], the “MIC of ceftazidime (CAZ)” value in experiment [2] is 128 µg/mL.

Consider `NCc1ccc2sc(B(O)O)cc2c1` [Compound 3], for which, in experiment [2], the “MIC of ceftazidime (CAZ)” value worked out at 128 µg/mL.
